This is an account of results in patent US9657015B2, “Substituted bicyclic dihydropyrimidinones and their use as inhibitors of neutrophil elastase activity” (Boehringer Ingelheim International GmbH, priority 2014, dated 2017).

Chains of the proteins cited; added tags and fusions are not shown. Residues count along the entry.
UniProt P08246, 30-247 limits assumed: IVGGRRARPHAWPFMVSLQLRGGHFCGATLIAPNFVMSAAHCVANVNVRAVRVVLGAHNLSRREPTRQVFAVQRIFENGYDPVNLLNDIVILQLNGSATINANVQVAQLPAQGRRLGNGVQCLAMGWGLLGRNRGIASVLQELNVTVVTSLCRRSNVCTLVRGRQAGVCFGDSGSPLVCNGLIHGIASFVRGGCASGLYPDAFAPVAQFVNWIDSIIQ

Data set [1] can be described thus: Metabolic stability with human liver microsomes. Particulars: pooled human liver microsomes, 37° C., 1 μM test compound, 1 mg/ml microsomal protein, NADPH. (In general: Liver microsomes are vesicles of endoplasmic reticulum, rich in cytochrome P450 enzymes.)
Data set [2] can be described thus: Aqueous solubility (High Throughput Method). The settings on record: McIlvaine buffer pH 6.8, 2.5% DMSO, 24 h shaking.
Another data set deals with Caco-2 cells. Nature of the data set: Drug transport across human Caco-2 cells. Particulars: Caco-2 monolayers, pH 7.2, 37° C.; for PEAB: apical-to-basal; for PEBA: basal-to-apical. (Passage across Caco-2 layers is used to estimate intestinal permeability.)
The target in data set [3] is neutrophil elastase in human plasma (Homo sapiens (Human), UniProt P08246). Nature of the data set: Neutrophil elastase inhibitory activity in human plasma. Format: biochemical. The settings on record: human plasma assay (zymosan-stimulated blood plasma), substrate 250 μM, pH 7.5.
In data set [4] the target is Human neutrophil elastase (Homo sapiens (Human), UniProt P08246). Nature of the data set: Human Neutrophil Elastase Assay. The settings on record: substrate MeOSuc-Ala-Ala-Pro-Val-AMC 250 μM, pH 7.5, room temperature. The data set is classed as biochemical.

For `CNC(=O)c1cc(C#N)ccc1C1C2=C(CCN(C)C2=O)N(c2cccc(C(F)(F)F)c2)C(=O)N1C` (stereo not drawn), the “t1/2 INVITRO” value in data set [1] was greater than 2.17 h. For the same compound, the Aqueous solubility in data set [2] came to 80 µg/mL. Further, in the data set on Caco-2 cells, the PEAB stood at 6.7 ×10⁻⁶ cm/s and the PEBA is 81 ×10⁻⁶ cm/s.

On to `CN(C)C(=O)c1cc(C#N)ccc1C1C2=C(CCN(C)C2=O)N(c2cccc(C(F)(F)F)c2)C(=O)N1C` (stereo not drawn), for which the IC50 in data set [3] was found to be 8.1 nM. In data set [2], this compound displayed an Aqueous solubility of 86 µg/mL. This compound also showed an IC50 in data set [4] of 2 nM. In the data set with Caco-2 cells, this compound registered a PEAB of 11 ×10⁻⁶ cm/s and a PEBA of 110 ×10⁻⁶ cm/s.

`CN1CCC2=C(C1=O)C(c1ccc(C#N)cc1)N(CC(=O)NCCO)C(=O)N2c1cccc(C(F)(F)F)c1` (stereo not drawn): the IC50 in data set [3] is 6.7 nM; in data set [4] it was 2.7 nM.

In data set [3], `CC1CN(C(=O)CN2C(=O)N(c3cccc(C(F)(F)F)c3)C3=C(C(=O)N(C)CC3)C2c2ccc(C#N)cc2)CC1C` (stereo not drawn) came in with a half-inhibitory concentration (IC50) of 4.3 nM.

In general, Aqueous solubility refers to the dissolved amount per volume that the medium holds. A low value points to little dissolved substance. In general, IC50 refers to the concentration that gives 50% inhibition. Lower therefore signals greater potency in that assay.
